Test results: patent US20160151503A1, “COMPOSITIONS AND PREPARATION METHODS OF LOW MELTING IONIC SALTS OF POORLY-WATER SOLUBLE DRUGS” (MW ENCAP LIMITED, priority 2013, published 2016)

Experiment: Drug solubility in exemplar lipid formulations (SEDDS) and individual excipients
Conditions: Table 5 Dextromethorphan and Metformin

In the case of “Dextromethorphan Decylsulfate (Mixture of Isomers [Cation])”, the “Solubility in MC SEDDS (mg/g) Free base equiv.” value is reported as 50 to 100 mg/g.
